Some targets named below: aMSLN 2.69.2HL-BiTE; aMSLN 1.33HL-BiTE; aMSLN 2.37HL-BiTE.
What all share (test): on-cell affinity (flow cytometry); transfected 293T cells
For orientation: A flow cytometer gives signals particle by particle.

The text below walks through data of US20190055316A1 (published 2019).

The Kd is the concentration at which binding is half-saturated. Higher therefore signals weaker binding.

B1: Cyno MSLN (other)
chain: MALPMARPLSGSCGTPALGSLLFLLFSLGWVQPSRVLAGETRQEAAPLDGILTNAPDIASLSPRQLLGFTCVEVSGLSTELVQELAVALGQKNVKLSAEQLRCLAHRLSEPPEDLDALPLDLLLFLKQASVQGVRGSLLSEADVRALGGLACDLPGRFVAESAEVVLPRLVRCLGPLDQDQQEAARAALQRGGPPYGPPSTWSISTLDDLQSLLPVLGQPVIHSIPQGILAAWRQRSSRDPSWQQPEQTVLRPRFRRDVERTTCPPEKEVHEIDENLIFYKKRELEACVDAALLAAQMDRVDAIPFTYEQLDVLKHKLDELYPQGYPESVIRHLGHLFLKMSPEDIRKWNVTSLETLKALLKVSKGHEMSAQVATLIDRVVVGRGQLDKDTADTLTAFCPGCLCSLSPERLRSVPPSVIGAVRPQDLDTCGPRQLDVLYPKARLAFQNMSGSEYFVKIRPFLGGAPTEDLKALSQQNVSMDLATFMKLRREAVLVGRAGGGASGGGDNRGREGV
Turning to B1, the values for the Kd with aMSLN 2.69.2HL-BiTE, in the test with aMSLN 1.33HL-BiTE and in the test with aMSLN 2.37HL-BiTE were 2.19 nM, 8.15 nM and 11.7 nM, respectively.
